Values of other authors, collected in article PMC8951016, “Computational Design and Biological Evaluation of Analogs of Lupin Peptide P5 Endowed with Dual PCSK9/HMG-CoAR Inhibiting Activity” (Pharmaceutics, 2022).

Target: T1, HMG-CoAR (catalytic domain) (Homo sapiens, UniProt P04035)
T1 construct: finally the HMG-CoAR (cata- lytic domain) (2 µL); purchased Sigma-Aldrich
T1 sequence (P04035 426-888 limits assumed): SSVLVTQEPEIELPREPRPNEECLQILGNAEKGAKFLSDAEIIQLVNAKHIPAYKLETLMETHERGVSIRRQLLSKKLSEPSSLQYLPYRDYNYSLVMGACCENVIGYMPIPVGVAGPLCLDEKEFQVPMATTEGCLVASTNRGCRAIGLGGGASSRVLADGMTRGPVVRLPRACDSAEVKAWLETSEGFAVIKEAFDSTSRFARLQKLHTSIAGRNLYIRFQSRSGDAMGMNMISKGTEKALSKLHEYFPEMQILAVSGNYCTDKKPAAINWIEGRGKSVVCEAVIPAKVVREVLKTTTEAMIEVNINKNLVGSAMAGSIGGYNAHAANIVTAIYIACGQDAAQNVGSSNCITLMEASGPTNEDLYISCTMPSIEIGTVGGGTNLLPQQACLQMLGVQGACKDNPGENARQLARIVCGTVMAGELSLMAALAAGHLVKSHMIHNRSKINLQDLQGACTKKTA
Conditions: read-out: IC50, HMG-CoAR activity (statins); cited from earlier work

Compound | IC50
CC(C)c1c(C(=O)Nc2ccccc2)c(-c2ccccc2)c(-c2ccc(F)cc2)n1CC[C@@H](O)C[C@@H](O)CC(=O)O [atorvastatin] | 0.0082 µM
CC[C@H](C)C(=O)O[C@H]1C[C@H](O)C=C2C=C[C@H](C)[C@H](CC[C@@H](O)C[C@@H](O)CC(=O)O)[C@H]21 [pravastatin] | 0.0441 µM
